# Assay results: patent US9718813B2, “Imidazolin-5-one derivative useful as FASN inhibitors for the treatment of cancer” (Janssen Pharmaceutica, NV, priority 2013, dated 2017)
# By UniProt entry, the sequences of proteins in these tests, tags left out.
# UniProt P49327, whole entry: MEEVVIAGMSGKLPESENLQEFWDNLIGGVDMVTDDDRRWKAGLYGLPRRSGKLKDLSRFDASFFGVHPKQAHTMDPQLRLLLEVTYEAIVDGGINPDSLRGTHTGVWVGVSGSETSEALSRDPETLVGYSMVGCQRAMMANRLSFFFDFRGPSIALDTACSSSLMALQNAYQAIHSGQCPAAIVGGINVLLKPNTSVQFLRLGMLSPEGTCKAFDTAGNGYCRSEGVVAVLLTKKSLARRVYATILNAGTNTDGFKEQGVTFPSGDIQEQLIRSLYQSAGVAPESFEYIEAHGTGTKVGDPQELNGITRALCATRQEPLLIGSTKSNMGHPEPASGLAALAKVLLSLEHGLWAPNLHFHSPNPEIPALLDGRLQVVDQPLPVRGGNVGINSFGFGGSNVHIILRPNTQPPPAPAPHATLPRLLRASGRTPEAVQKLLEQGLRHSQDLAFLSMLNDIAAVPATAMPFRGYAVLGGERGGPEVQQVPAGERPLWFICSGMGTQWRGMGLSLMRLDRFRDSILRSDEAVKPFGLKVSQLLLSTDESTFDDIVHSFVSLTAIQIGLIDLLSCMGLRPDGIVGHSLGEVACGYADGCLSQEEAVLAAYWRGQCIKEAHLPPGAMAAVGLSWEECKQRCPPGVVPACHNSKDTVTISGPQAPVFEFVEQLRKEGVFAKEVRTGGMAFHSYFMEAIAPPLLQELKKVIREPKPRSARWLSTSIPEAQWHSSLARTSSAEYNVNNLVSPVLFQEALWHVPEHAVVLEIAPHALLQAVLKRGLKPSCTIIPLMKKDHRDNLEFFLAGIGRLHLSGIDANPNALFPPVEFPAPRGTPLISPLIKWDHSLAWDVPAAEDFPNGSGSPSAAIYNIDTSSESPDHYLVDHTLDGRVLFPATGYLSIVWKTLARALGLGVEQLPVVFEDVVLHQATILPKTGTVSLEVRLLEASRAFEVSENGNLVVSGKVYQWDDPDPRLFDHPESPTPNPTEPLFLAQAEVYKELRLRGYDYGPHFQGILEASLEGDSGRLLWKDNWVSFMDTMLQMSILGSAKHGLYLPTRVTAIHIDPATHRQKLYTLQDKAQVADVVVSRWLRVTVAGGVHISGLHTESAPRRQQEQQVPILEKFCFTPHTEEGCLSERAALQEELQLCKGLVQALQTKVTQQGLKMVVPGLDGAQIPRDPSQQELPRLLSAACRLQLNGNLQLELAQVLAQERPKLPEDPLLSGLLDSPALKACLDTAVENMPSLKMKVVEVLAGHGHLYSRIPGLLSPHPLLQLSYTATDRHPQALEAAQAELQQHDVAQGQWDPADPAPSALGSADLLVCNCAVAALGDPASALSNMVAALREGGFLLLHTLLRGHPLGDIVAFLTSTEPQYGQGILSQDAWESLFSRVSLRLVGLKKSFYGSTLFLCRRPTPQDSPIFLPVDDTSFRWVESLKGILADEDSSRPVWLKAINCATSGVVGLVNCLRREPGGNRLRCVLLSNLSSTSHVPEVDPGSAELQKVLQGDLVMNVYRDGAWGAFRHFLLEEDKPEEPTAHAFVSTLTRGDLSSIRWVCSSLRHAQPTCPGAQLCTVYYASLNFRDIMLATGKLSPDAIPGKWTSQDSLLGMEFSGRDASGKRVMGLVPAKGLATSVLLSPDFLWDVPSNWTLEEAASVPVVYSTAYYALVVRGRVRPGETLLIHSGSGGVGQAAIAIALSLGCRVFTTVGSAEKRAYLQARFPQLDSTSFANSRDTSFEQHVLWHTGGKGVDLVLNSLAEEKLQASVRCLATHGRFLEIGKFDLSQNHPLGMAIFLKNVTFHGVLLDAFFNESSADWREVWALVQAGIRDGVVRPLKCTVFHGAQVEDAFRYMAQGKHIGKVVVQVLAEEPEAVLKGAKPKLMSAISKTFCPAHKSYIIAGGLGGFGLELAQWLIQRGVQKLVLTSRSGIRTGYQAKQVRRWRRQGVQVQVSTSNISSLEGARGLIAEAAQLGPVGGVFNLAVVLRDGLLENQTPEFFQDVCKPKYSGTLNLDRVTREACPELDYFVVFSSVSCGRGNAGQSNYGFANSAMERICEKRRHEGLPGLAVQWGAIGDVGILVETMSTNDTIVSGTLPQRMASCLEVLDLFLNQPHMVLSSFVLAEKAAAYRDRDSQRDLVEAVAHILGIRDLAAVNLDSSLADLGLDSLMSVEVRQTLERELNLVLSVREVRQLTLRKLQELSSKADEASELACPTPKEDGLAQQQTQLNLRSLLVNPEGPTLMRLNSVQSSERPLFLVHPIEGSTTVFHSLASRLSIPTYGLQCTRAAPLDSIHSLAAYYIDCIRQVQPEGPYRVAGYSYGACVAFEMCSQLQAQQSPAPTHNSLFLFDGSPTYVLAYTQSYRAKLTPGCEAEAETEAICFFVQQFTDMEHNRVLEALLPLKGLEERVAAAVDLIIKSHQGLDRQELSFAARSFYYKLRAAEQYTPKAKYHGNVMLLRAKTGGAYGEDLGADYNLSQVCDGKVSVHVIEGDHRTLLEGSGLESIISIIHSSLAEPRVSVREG
# Columns and labels:
# [1] = biological target: hFASN enzyme (full length) (Homo sapiens (Human), UniProt P49327); assay: Fatty Acid Synthase (FASN) Inhibition Scintillation Proximity Assay; format: biochemical; conditions: 3H-acetyl-CoA and malonyl-CoA substrates, SPA, mean if tested more than once
# Procedure: In this assay, inhibition of FASN activity is measured using ^3H-acetyl-CoA and malonyl-CoA as substrates. ^3H-Acetyl CoA is converted to ^3H-palmitate through a series of reactions by the FASN protein, which contains 7 functional domains and carries out 7 enzymatic reactions to ultimately produce ^3H-palmitate. The assay principle is based upon the fact that ^3H-acetyl-CoA is hydrophilic and the end product, ^3H-palmitate is hydrophobic.
# 10 μL assay buffer (100 mM KH2PO4 pH 7.5, 1 mM DTT) (20 μL in blanks) was added to a 384-well white Opti Plate plate (Perkin Elmer). 0.9 μL test compound (at concentrations of 30 μM, 10 μM, 3 μM, 1 μM, 0.30 μM, 0.10 μM, 0.03 μM and 0.01 μM)/DMSO and 10 μL hFASN enzyme (full length, 300 ng, purified in house) or 10 μL assay buffer was added to the wells. […] The reaction was stopped by adding 20 μL Streptavidin coupled imaging beads (25 mg/ml). After incubation for 30 minutes at room temperature in the dark, the 384 well plate was centrifuged at 1500 rpm for 3 minutes and was measured after at least 24 hrs by the LEADseeker™, measuring emission using a 610±20 nm pass filter.
# (§1) Raw data generated by the instrument were normalized to % Controlmin values, which were calculated as: % Controlmin=100*(x−mLC)/(mHC−mLC)
# where mLC and mHC were the means of the low control wells and high control wells on the plate, after manual exclusion of outliers. […]
# [2] = biological target: FASN Keto-reductase Domain (hFASN enzyme, full length) (Homo sapiens (Human), UniProt P49327); assay: Fatty Acid Synthase Keto-reductase Domain (FASN KR) Inhibition; format: biochemical; conditions: NADPH oxidation at 340 nm, ethyl acetoacetate substrate
# Procedure: After 20 minutes incubation at room temperature the plate was measured again (T2).
# The decrease in absorbance was calculated as (Absorbance before incubation T1)−(Absorbance following incubation T2).
# as §1
# where mLC and mHC were the means of the low control wells and high control wells on the plate, after manual exclusion of outliers. A plot of Controlmin versus test compound concentration was fitted to a 4-parameter logistic curve using a non-linear least squares regression method.
Human FASN pIC50 [1],FASN Keto-reductase Domain pIC50 [2],Compound
5.70,–,"CC1(C)N=C(c2ccc(-c3cnc4ccccc4c3)cc2F)N(CC2CN(C(=O)C3CC3)C2)C1=O [Compound 20, 1-((1-(cyclopropanecarbonyl)azetidin-3-yl)methyl)-2-(2-fluoro-4-(quinolin-3-yl)phenyl)-4,4-dimethyl-1H-imidazol-5(4H)-one]"
–,6.49,"Cn1ncc2cc(-c3ccc(C4=NC(C)(C)C(=O)N4C[C@@H]4CCN(C(=O)C5CC5)C4)c(F)c3)ccc21 [Compound 53, (R)-1-((1-(cyclopropanecarbonyl)pyrrolidin-3-yl)methyl)-2-(2-fluoro-4-(1-methyl-1H-indazol-5-yl)phenyl)-4,4-dimethyl-1H-imidazol-5(4H)-one]"
5.32,–,"CC1(C)N=C(c2ccc(-c3nc4ccccc4[nH]3)cc2F)N(CC2CN(C(=O)C3CC3)C2)C1=O [Compound 60, 2-(4-(1H-benzo[d]imidazol-2-yl)-2-fluorophenyl)-1-((1-(cyclopropanecarbonyl)azetidin-3-yl)methyl)-4,4-dimethyl-1H-imidazol-5(4H)-one]"
